According to ChEMBL document CHEMBL5726367, “Aldosterone synthase inhibitors” (2017):

Target: T1, Cytochrome P450 11B2, mitochondrial (Homo sapiens, UniProt P19099)
T1 sequence (P19099 whole entry): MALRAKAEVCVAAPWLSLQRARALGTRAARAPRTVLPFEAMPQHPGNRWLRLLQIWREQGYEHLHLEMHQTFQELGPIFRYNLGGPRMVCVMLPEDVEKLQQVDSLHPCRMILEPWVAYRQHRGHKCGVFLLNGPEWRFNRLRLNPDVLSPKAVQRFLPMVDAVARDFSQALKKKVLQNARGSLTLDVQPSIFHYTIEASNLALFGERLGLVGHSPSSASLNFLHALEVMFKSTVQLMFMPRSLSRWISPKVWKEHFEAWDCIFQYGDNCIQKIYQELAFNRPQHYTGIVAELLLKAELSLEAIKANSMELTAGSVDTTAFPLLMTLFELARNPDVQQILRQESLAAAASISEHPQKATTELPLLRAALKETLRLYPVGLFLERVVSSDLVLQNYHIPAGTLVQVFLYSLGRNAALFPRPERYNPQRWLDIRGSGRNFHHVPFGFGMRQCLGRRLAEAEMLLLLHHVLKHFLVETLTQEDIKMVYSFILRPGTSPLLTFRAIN
Experiment: Inhibition Assay: Assays are performed in 96-well format in a final volume of 60 μL/well, containing 100 mM potassium phosphate, pH 7.4, 1% (v/v) DMSO, and additionally, 2 μM of corticosterone and 50 units of CYP11B2 activity. Reactions are started by the addition of NADPH to 1 mM and allowed to proceed for 90 minutes at 37° C. Reactions are terminated by the addition of 60 μL of MeCN containing an internal standard for mass spectrometry. One hundred microliters are then transferred to a glass filter plate and centrifuged at 570×g for 5 minutes and the filtrate is collected. Reaction product aldosterone is quantified by mass spectrometry. To determine the assay blank value (0% activity), NADPH is omitted from some reactions.

Q: `NC(=O)c1cccc2c1OCC(c1cncc(CC(=O)N3CCOCC3)c1)O2` (single isomer, unassigned) was tested. Which IC50 did it give?
A: > 1 µM
